Literature values in US20030109678A1, “Methods and means for regulation of gene expression” (priority 2000, published 2003).

Amino acid sequences for entries named in this document (tags omitted).
UniProt P03372, whole entry G521R: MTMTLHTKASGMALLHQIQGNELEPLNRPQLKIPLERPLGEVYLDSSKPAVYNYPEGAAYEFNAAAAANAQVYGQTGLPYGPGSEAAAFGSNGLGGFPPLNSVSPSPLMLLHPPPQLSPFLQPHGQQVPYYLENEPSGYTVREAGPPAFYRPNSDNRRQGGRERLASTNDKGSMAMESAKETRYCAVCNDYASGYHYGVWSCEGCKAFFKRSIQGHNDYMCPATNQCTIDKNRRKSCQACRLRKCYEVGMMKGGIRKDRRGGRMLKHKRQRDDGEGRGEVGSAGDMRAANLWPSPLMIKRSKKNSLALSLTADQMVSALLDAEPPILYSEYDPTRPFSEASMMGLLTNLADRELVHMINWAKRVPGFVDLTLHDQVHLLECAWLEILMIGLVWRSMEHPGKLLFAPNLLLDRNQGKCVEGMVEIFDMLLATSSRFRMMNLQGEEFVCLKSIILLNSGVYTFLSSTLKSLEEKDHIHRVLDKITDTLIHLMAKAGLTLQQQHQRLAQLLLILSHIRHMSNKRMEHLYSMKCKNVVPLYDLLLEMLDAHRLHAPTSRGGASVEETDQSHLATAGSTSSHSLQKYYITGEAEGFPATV

Biological target: mutated form of the human estrogen receptor (ER), G521R mutation (Homo sapiens, UniProt P03372, G521R)

## O=C(c1ccc(OCN2CCCCC2)cc1)c1c(-c2ccc(O)cc2)sc2cc(O)ccc12 [raloxifen]
  binding by G521R ER: efficiently binds
